Values of other authors, collected in patent US6362171B1, “Aminoaklanoyl-linked conjugates of 2′,5′-oligoadenylate and antiviral uses thereof” (priority 1997, dated 2002).

How the values were obtained:
[1] = literature ref [9]; cited from earlier work
[2] = tested on: cells; conditions: literature ref [9]; cited from earlier work

In the case of (2′-5′)d^3′(A-A-A) [CCC], the Metabolic stability [1] is listed as “metabolically stable” and the Toxicity to cells [2] is listed as “not toxic to cells”.
